Legend:
[1] = system: phospho/total ERK1/2 in primary murine aortic SMCs; assay: CML-AGE-stimulated ERK1/2 phosphorylation, Western blot; details: 1 µM compound, 1.5 h pretreatment; CML-AGE 10 µg/ml 20 min; p < 0.05
[2] = system: phospho/total Akt in primary murine aortic SMCs; assay: CML-AGE-stimulated Akt phosphorylation, Western blot; details: 1 µM compound, 1.5 h pretreatment; CML-AGE 10 µg/ml 20 min; p < 0.05
Tnfa mRNA in kidney = assay: CML-AGE infusion in vivo, kidney Tnfa mRNA; details: mice; four doses 5 mg/kg i.p. every 12 h; CML-AGE 150 µg i.p.; kidney 4 h later; p < 0.05
[3] = system: Il6 mRNA in primary murine aortic endothelial cells (MAECs); assay: CML-AGE-mediated upregulation of Il6 mRNA, real-time quantitative PCR; details: 1 µM compound 1.5 h, CML-AGE 10 µg/ml 6 h
[4] = system: diabetic mouse heart (ex vivo); assay: Isolated perfused diabetic heart, ischemia/reperfusion, LVDP recovery; details: streptozotocin-diabetic mouse hearts ex vivo; 1 µM compound; 30 min ischemia, 60 min reperfusion; p < 0.05

## Cc1cc2n(c1)CCn1c(C)ccc1-2
[1]
  effect on CML-AGE-mediated phospho/total ERK1/2: significant suppression
[2]
  effect on CML-AGE-mediated stimulation of phospho/total-Akt: significant suppression
Tnfa mRNA in kidney
  effect on CML-AGE-mediated upregulation of Tnfa mRNA in kidney: significant suppression

## Cc1c(Cl)cccc1NC(=O)CNC(=O)c1ccccc1F
[1]
  effect on CML-AGE-mediated phospho/total ERK1/2: did not significantly affect
[2]
  effect on CML-AGE-mediated stimulation of phospho/total-Akt: did not significantly suppress
[3]
  effect on CML-AGE-mediated upregulation of Il6: significant suppression
Tnfa mRNA in kidney
  effect on CML-AGE-mediated upregulation of Tnfa mRNA in kidney: significant suppression

## COC(=O)c1cc(-c2ccc(NC(C)=O)cc2)nc2ccccc12
[1]
  effect on CML-AGE-mediated phospho/total ERK1/2: significant suppression
[2]
  effect on CML-AGE-mediated stimulation of phospho/total-Akt: significant suppression
[3]
  effect on CML-AGE-mediated upregulation of Il6: significant suppression
Tnfa mRNA in kidney
  effect on CML-AGE-mediated upregulation of Tnfa mRNA in kidney: significant suppression
[4]
  left ventricular developed pressure (LVDP) functional recovery after ischemia/reperfusion vs DMSO vehicle: statistically-significantly higher LVDP

## CC1=NN(c2nc3ccccc3[nH]2)C(=O)C1CCC(C)C (centres unmarked)
[1]
  effect on CML-AGE-mediated phospho/total ERK1/2: significant suppression
[2]
  effect on CML-AGE-mediated stimulation of phospho/total-Akt: significant suppression
[3]
  effect on CML-AGE-mediated upregulation of Il6: significant suppression
Tnfa mRNA in kidney
  effect on CML-AGE-mediated upregulation of Tnfa mRNA in kidney: significant suppression
[4]
  left ventricular developed pressure (LVDP) functional recovery after ischemia/reperfusion vs DMSO vehicle: statistically-significantly higher LVDP

Source: paper PMC4776135, “Small Molecule Inhibition of Ligand-Stimulated RAGE-DIAPH1 Signal Transduction” (Scientific Reports, 2016)
